These results are taken from publication PMC8495968, “Towards optimizing peptide-based inhibitors of protein–protein interactions: predictive saturation variation scanning (PreSaVS)” (RSC Chemical Biology, 2021).

Chains of the proteins cited; added tags and fusions are not shown. Residues count along the entry.
UniProt P63165, 18-97: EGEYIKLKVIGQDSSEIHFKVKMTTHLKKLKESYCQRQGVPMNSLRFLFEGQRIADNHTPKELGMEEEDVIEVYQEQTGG

The target in the assay is T1, hSUMO-1 18-97 (Homo sapiens, UniProt P63165).
T1 construct: 18-97; His-TEV (N, cleaved yes); made in house
The experiment in a line: Fluorescence anisotropy competition assay, FITC-peg-SIM tracer / SUMO. The class given is binding. The protocol: hSUMO-1 18-97 was expressed and purified as previously described from a pet19b His-TEV-SUMO-1 (18-97) construct with cleavage of the tag using TEV protease.4 […]
Fluorescence anisotropy assays were performed in 384-well plates (Greiner Bio-one). Each experiment was run in triplicate and the fluorescence anisotropy measured using a Perkin Elmer EnVisionTM 2103 MultiLabel plate reader, with excitation at 480 nm (30 nm bandwidth), polarised dichroic mirror at 505 nm and emission at 535 nm (40 nm bandwidth, S and P polarised). All assays were performed in 20 mM Tris, 100 mM NaCl, 0.1 mM DTT, pH 7.5 unless otherwise stated and data analysed following previously published methods.
Fluorescence anisotropy data was processed as described previously.[2] […]
For direct titration the average anisotropy (across three experimental replicates) and the standard deviation of these values were then calculated and fit to a logistic model using OriginPro 9.0 to determine the maximum and minimum anisotropies then the fraction bound calculated (Equation 3) and used to determine Kd (equation 4) […]
For competition experiments, the anisotropies were determined as for the direct titration and then plotted against inhibitor concentration and fit (equation 5) to determine the IC50 and error […]

The structures appear in SMILES notation.

`CC[C@H](C)[C@H](NC(=O)[C@H](CCC(=O)O)NC(=O)[C@H](CC(N)=O)NC(=O)[C@H](CC(=O)O)NC(C)=O)C(=O)N[C@@H](CCC(=O)O)C(=O)N[C@H](C(=O)N[C@H](C(=O)N[C@H](C(=O)N[C@H](C(=O)N[C@@H](Cc1c[nH]c2ccccc12)C(=O)N[C@@H](CCC(=O)O)C(=O)N[C@@H](CCCCN)C(=O)N[C@@H](CCCCN)C(N)=O)C(C)C)[C@@H](C)CC)[C@@H](C)CC)C(C)C` [SIM2705–2717] displayed an IC50 of 21.9 ± 0.3 µM.
